Article PMC3183106 (Pharmacological research : the official journal of the …, 2011)
Like-named read-outs stand apart in the source and are kept apart here.

Experiments:
[1] = mean ± SEM
[2] = mean ± SEM; remark: listed apart in the source

Percent of metabolite relative to total for respective ITC in the plasma ([1]; 12 hrs after broccoli sprouts, GSTP1 A/A (n=7)): 3.44 ± 0.12% | Percent of metabolite relative to total for respective ITC in the plasma ([1]; 12 hrs after broccoli sprouts, GSTP1 A/G (n=5)): 3.67 ± 0.31% | Percent of metabolite relative to total for respective ITC in the plasma ([1]; 12 hrs after broccoli supplement, GSTP1 A/A (n=7)): 3.06 ± 0.18% | Percent of metabolite relative to total for respective ITC in the plasma ([1]; 12 hrs after broccoli supplement, GSTP1 A/G (n=5)): 3.00 ± 0.18% | Percent of metabolite relative to total metabolites for respective ITC in urine ([2]; first 12 hrs after broccoli sprouts, GSTP1 A/A (n=7)): 17.9 ± 1.37% | Percent of metabolite relative to total metabolites for respective ITC in urine ([2]; first 12 hrs after broccoli sprouts, GSTP1 A/G (n=5)): 20.2 ± 2.69% | Percent of metabolite relative to total metabolites for respective ITC in urine ([2]; first 12 hrs after broccoli supplement, GSTP1 A/A (n=7)): 14.1 ± 1.06% | Percent of metabolite relative to total metabolites for respective ITC in urine ([2]; first 12 hrs after broccoli supplement, GSTP1 A/G (n=5)): 16.5 ± 0.50%
Compound: C[S+]([O-])CCCCNC(=S)SCC(N)C(=O)O (centres unmarked) [SFN-Cys, SFN-cysteine]
